Measured values published in patent publication US8486989B2, “Inhibitors of serine proteases, particularly HCV NS3-NS4A protease” (Vertex Pharmaceuticals Incorporated, priority 2001, dated 2013).

Tested on: Cells containing hepatitis C virus (HCV) replicon
Test: HCV replicon cell assay (Taqman real-time RT-PCR of HCV RNA level)
Type: cell-based
Details: 50% inhibition of HCV RNA level, 48-hour incubation

## CCC[C@H](NC(=O)[C@@H]1[C@@H]2[C@H](CN1C(=O)[C@@H](NC(=O)[C@@H](NC(=O)c1cnccn1)C1CCCCC1)C(C)(C)C)[C@@H]1C=C[C@H]2C1)C(=O)C(=O)NC1CC1 [IA, 4-(2-{2-Cyclohexyl-2-[(pyrazine-2-carbonyl)-amino]-acetylamino}-3,3-dimethyl-butyryl)-4-aza-tricyclo[5.2.1.0^2,6]dec-8-ene-3-carboxylic acid (1-cycloproylaminooxalyl-butyl)-amide]
  IC50: 202 nM
